Biological target: Transient receptor potential cation channel subfamily V member 1 (Rattus norvegicus, UniProt O35433)
Assay: Antagonist activity at TRPV1 in Sprague-Dawley rat DRG neuron assessed as reduction of capsaicin-stimulated 45Ca2+ uptake
Format: functional
Outline: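 Neonatal Sprague-Dawley rat DRG neurons (all spinal levels) dissociated with collagenase/trypsin and cultured 3 days with C6 glioma-conditioned medium. Washed in HEPES (10 mM, pH 7.4) Ca/Mg-free HBSS. Exposed to 45Ca2+ plus 0.5 µM capsaicin with compound for 10 min at room temperature. Cells washed, SDS-lysed, scintillation counted.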

Chains of the proteins cited; added tags and fusions are not shown.
UniProt O35433, whole entry: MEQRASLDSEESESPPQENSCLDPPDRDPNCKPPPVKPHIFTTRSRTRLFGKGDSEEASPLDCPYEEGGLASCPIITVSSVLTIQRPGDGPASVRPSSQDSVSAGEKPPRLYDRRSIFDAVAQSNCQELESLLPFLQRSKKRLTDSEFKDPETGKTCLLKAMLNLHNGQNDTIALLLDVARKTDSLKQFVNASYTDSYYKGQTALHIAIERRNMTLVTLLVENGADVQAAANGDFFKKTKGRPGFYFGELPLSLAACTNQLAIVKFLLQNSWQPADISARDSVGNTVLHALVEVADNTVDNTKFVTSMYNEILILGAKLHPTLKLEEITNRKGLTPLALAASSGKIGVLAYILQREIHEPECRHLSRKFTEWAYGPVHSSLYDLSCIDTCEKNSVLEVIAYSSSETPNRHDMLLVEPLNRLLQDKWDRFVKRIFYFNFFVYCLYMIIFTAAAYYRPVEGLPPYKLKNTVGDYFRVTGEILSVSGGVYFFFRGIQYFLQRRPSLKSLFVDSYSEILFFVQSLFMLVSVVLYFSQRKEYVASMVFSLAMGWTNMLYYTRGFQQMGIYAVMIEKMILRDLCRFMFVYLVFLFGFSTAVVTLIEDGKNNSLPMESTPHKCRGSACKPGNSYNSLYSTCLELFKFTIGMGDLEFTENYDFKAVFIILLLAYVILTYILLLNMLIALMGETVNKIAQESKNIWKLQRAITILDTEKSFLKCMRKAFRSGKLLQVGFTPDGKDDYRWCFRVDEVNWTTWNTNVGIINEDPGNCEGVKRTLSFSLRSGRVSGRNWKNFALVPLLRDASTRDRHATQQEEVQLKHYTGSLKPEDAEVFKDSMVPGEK

CC(C)(C)c1ccc(/C=C/C(=O)NCc2ccc(NS(C)(=O)=O)c(F)c2)cc1
IC50: 490 nM

Source: ChEMBL document CHEMBL1136888, “Design, synthesis, and biological evaluation of novel diarylalkyl amides as TRPV1 antagonists” (Bioorg Med Chem, 2009)
